Values quoted from earlier work, collected in patent US20090306944A1, “DEVICE AND METHOD FOR CALCULATING AND SUPPLYING A DRUG DOSE” (BAYER TECHNOLOGY SERVICES GMBH, priority 2006, published 2009).
Some compounds may have been tested in ways that are not shown here.

Legend:
[1] = tested on: CYP3A; conditions: proportion of overall clearance, reference value in an adult

## CCC(=O)N(c1ccccc1)C1(COC)CCN(CCn2nnn(CC)c2=O)CC1
[1]
  Excretion process: CYP3A: CYP3A (100%)
adult
  main binding protein in the plasma: α1-Glycoprotein
Reference value in an adult
  Free fraction in the plasma: 10%
